This experiment in a line: Selectivity for adrenergic alpha2A receptor over 5HTT receptor.

Regarding `CN1CC2C(=NO[C@H]2CN2CCN(C/C=C/c3ccccc3)CC2)c2ccccc21` (stereo partly specified), the Selectivity ratio came out at 10.

Values taken from ChEMBL document CHEMBL1158639, “Synthesis and in vivo evaluation of [11C]MPTQ: a potential PET tracer for alpha2A-adrenergic receptors” (Bioorg Med Chem Lett, 2010).
